# Experimental data taken from ChEMBL document CHEMBL5046225, “Discovery and Optimization of Orally Bioavailable Phthalazone and Cinnolone Carboxylic Acid Derivatives as S1P2 Antagonists against Fibrotic Diseases” (J Med Chem, 2021).
# By UniProt entry, the sequences of proteins in these tests, tags left out. Where a name states a change or a piece, a line headed by the entry shows the natural chain unless it says otherwise.
# UniProt Q12809: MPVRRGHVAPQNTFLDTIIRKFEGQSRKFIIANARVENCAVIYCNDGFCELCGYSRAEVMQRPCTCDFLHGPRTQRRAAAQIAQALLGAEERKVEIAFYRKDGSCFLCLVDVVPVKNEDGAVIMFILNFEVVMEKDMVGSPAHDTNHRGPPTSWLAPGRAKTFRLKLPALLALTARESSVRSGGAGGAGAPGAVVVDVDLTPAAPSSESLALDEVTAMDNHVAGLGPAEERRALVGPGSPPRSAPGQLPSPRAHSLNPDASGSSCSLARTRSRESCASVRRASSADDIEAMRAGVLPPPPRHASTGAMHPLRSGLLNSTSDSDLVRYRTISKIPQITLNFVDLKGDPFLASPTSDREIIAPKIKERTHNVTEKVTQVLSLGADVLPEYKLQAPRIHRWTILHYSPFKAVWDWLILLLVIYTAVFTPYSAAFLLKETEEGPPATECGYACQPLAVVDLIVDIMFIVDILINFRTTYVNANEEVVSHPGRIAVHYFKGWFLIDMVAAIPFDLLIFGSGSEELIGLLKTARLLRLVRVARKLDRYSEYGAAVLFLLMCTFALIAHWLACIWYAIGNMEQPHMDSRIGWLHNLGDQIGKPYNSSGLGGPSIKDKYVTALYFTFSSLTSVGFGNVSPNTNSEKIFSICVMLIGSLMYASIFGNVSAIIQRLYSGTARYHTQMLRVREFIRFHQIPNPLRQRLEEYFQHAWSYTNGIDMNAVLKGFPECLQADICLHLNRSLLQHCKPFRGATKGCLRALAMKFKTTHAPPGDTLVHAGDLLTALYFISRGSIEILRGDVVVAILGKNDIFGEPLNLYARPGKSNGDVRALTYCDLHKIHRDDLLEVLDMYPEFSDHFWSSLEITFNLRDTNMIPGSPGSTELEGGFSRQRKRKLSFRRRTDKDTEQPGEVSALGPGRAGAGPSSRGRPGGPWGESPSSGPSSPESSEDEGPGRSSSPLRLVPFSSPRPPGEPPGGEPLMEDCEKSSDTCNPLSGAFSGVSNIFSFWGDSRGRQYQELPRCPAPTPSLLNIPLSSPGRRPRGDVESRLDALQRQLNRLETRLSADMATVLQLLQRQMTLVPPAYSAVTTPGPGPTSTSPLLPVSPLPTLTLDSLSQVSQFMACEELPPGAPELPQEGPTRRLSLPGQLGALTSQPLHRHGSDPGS
# Molecular target: Voltage-gated inwardly rectifying potassium channel KCNH2 (Homo sapiens, UniProt Q12809)
# Test: Inhibition of human ERG by patch clamp method
structure (smiles),measurement,value
C[C@H](C(=O)O)n1nc(Cn2cc3cc(OCC4CC4)c(Cl)cc3n2)c2ccccc2c1=O,IC50,35.8 µM
